Results: patent US20220289688A1, “RNA-TARGETING LIGANDS, COMPOSITIONS THEREOF, AND METHODS OF MAKING AND USING THE SAME” (THE UNIVERSITY OF NORTH CAROLINA AT CHAPEL HILL, priority 2019, published 2022)

System: TPP riboswitch RNA
Experiment: Isothermal titration calorimetry (ITC), ligand titrated into RNA
Assay type: binding
Settings: fragment 2 analogs, pendant groups, Table 2B

SMILES	Kd
NCc1ccc2nccnc2c1	5 µM
CNCc1ccc2nccnc2c1	12 µM
Oc1cccc2nccnc12	286 µM
